Data from ChEMBL document CHEMBL6115009.
The source made the active and inactive calls.

Chains of the proteins cited; added tags and fusions are not shown. Lines headed by an entry give the natural chain unless they say otherwise; changes in a name come on top.
UniProt O15399, whole entry, looked up: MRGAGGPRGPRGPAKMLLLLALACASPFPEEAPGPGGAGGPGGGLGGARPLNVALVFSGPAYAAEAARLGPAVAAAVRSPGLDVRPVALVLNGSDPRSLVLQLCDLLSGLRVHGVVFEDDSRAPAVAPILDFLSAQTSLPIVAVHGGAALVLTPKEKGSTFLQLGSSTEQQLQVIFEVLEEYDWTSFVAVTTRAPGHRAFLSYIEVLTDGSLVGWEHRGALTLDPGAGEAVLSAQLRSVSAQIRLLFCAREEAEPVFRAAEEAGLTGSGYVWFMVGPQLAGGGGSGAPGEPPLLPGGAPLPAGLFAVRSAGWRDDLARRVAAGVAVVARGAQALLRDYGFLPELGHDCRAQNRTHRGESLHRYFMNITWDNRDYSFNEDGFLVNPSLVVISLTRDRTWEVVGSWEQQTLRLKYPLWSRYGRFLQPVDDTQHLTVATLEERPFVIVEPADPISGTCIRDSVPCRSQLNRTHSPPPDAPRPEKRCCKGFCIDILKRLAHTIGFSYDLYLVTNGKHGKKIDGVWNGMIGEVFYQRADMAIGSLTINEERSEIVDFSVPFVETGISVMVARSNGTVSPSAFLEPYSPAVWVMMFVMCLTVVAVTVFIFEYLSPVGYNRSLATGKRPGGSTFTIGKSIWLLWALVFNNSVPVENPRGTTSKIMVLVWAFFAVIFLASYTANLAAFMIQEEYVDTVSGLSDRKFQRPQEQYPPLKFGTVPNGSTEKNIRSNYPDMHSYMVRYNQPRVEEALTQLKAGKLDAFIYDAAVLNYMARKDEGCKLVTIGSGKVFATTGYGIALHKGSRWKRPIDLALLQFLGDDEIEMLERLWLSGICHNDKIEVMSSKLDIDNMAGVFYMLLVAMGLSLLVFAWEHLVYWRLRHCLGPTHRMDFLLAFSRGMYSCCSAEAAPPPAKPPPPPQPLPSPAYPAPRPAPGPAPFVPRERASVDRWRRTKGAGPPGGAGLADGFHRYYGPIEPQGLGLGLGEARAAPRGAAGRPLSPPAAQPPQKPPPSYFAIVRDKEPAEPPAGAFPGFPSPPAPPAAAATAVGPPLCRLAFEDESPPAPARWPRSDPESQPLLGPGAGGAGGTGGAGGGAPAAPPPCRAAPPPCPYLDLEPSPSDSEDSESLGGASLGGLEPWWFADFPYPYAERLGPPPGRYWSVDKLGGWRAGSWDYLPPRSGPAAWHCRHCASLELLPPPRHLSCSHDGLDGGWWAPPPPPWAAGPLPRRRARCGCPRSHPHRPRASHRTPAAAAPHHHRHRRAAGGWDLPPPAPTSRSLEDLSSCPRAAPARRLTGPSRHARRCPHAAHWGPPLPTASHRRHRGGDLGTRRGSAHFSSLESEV
UniProt Q14957: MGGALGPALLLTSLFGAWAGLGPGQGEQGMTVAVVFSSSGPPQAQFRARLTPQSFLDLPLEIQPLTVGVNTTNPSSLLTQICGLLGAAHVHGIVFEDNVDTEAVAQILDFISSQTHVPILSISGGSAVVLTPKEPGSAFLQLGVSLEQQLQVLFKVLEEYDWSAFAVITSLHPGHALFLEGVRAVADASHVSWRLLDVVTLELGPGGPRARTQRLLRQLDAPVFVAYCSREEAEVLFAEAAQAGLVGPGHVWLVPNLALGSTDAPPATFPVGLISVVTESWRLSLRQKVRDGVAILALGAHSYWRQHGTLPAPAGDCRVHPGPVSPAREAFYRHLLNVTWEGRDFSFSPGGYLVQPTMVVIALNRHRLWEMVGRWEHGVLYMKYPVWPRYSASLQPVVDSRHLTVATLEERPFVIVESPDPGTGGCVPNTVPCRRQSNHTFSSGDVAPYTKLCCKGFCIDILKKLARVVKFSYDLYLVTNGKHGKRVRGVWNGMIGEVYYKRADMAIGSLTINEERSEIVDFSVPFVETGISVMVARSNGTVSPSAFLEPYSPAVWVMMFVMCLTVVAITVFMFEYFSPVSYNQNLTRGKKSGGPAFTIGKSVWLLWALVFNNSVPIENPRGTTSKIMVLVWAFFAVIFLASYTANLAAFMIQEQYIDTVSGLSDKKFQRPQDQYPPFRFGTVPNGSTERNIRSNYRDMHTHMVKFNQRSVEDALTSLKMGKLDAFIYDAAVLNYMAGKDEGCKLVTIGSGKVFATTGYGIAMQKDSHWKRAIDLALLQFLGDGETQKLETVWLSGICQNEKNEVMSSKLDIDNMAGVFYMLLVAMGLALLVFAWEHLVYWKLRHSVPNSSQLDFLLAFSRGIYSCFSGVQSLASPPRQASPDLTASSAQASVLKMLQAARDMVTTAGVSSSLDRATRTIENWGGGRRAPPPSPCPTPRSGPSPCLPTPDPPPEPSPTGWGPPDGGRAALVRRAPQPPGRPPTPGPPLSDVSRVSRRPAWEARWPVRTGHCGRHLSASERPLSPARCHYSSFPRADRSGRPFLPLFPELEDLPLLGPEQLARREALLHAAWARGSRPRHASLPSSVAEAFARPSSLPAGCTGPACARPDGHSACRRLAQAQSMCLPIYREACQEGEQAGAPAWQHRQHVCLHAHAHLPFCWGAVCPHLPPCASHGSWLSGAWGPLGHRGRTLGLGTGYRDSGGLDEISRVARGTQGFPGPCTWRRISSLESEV
UniProt Q13224, whole entry, looked up: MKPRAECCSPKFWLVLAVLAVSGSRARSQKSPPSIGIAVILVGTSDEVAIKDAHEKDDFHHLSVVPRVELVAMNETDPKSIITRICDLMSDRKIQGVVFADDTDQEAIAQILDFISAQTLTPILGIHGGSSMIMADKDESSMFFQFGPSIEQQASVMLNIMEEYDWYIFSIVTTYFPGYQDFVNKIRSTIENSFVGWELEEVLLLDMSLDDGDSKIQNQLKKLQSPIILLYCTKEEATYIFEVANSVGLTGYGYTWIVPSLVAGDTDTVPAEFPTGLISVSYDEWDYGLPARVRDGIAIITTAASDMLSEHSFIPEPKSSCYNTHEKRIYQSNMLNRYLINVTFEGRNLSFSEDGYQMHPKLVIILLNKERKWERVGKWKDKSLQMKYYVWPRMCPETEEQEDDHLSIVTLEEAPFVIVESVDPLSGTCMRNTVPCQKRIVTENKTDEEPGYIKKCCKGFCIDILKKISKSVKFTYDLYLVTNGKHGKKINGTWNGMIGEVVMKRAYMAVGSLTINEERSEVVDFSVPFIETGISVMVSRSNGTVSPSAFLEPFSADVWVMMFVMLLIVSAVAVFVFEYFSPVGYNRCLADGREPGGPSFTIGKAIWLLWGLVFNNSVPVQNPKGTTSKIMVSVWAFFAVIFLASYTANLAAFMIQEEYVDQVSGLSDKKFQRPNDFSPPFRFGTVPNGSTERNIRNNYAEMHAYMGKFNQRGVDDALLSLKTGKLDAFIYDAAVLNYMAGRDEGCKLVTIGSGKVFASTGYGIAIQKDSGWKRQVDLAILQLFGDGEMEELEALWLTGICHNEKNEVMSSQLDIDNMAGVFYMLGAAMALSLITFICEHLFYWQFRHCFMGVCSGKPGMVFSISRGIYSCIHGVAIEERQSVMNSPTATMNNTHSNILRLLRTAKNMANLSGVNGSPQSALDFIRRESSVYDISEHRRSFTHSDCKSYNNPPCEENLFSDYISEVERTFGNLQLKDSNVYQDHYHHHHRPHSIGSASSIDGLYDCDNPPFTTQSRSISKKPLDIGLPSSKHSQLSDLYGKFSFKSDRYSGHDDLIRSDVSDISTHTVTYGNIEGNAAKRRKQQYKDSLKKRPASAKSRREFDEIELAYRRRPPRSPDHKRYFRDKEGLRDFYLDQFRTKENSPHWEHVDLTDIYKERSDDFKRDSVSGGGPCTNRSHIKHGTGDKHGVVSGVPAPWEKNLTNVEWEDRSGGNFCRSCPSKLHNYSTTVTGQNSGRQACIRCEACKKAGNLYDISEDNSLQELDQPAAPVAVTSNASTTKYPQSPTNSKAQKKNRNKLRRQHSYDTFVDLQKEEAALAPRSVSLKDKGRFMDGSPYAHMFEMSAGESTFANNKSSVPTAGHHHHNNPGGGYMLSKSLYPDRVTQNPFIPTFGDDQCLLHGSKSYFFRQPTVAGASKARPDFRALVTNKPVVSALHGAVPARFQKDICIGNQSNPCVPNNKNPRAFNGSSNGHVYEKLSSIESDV

Legend:
Type in all cases: cell-based
[1] = molecular target: Ionotropic glutamate receptor NMDA 1/2D (Homo sapiens) (UniProt Q05586+O15399); assay: Antagonist activity at GluN1/GluN2D receptor (unknown origin) overexpressed in CHO cells assessed as inhibition of Ca2+ flux incubated for 24 hrs in presence of glycine/L-glutamate by FLIPR assay
[2] = molecular target: Ionotropic glutamate receptor NMDA 1/2C (Homo sapiens) (UniProt Q05586+Q14957); assay: Antagonist activity at GluN1/GluN2C receptor (unknown origin) overexpressed in CHO cells assessed as inhibition of Ca2+ flux incubated for 24 hrs in presence of glycine/L-glutamate by FLIPR assay
[3] = molecular target: Glutamate NMDA receptor; GRIN1/GRIN2B (Homo sapiens) (UniProt Q05586+Q13224); assay: Antagonist activity at GluN1/GluN2B receptor (unknown origin) overexpressed in CHO cells assessed as inhibition of Ca2+ flux incubated for 24 hrs in presence of glycine/L-glutamate by FLIPR assay

Measured: inhibition

CCC1=N[C@H](C)CC1(c1ccccc1)c1ccccc1
inactive: all assays above

CCC1=N[C@@H](C)CC1(c1ccccc1)c1ccccc1
inactive: all assays above
